Experimental data reported in PubChem BioAssay AID588342 (National Center for Advancing Translational Sciences (NCATS), 2011).
“And” between values parts separate entries of the source, which are not always exact repeats. Equal values may be shown once. The list shows a part of the results, in another mix than the full data. Inconclusive results are not listed. The source made the active and inactive calls. The call rests on the fitted dose curve; in most records, active means well fitted inhibition curve with a large enough effect; inconclusive means small, poorly fitted or top-dose-only effect; inactive means flat fitted curve, though single readings scatter.

The chains behind the UniProt entries cited, without tags or fusion partners.
UniProt P08659, whole entry, looked up: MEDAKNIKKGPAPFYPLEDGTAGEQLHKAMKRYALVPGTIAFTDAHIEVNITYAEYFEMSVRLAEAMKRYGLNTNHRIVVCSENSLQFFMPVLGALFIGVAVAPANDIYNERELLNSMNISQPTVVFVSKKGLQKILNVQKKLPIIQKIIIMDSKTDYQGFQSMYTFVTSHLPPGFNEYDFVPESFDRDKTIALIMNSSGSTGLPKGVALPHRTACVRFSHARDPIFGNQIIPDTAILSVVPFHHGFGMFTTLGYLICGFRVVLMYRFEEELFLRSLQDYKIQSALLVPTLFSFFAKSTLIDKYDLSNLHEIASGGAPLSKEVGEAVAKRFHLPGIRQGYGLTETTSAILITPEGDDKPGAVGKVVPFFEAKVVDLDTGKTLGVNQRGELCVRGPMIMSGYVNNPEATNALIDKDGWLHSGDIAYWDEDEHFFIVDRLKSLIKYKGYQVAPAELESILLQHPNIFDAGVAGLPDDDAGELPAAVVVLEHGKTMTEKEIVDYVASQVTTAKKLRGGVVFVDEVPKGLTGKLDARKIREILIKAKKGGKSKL

These compounds were tested against Luciferin 4-monooxygenase (Photinus pyralis) (UniProt P08659) (assay: qHTS profiling assay for firefly luciferase inhibitor/activator using purifed enzyme and Km concentrations of substrates (counterscreen for miR-21 project)). Settings: purified FLuc, luminescence inhibition; at 57.5 µM (top of the series).
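Further: plate controls were vehicle for no effect and reference inhibitor for full effect; nearly all actives have a fitted effect of over 55% in size.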

Structure (SMILES) | activity change, negative = inhibition
O=C(O)CNc1ccc([As](=O)(O)O)cc1 | inactive: 2.02%
O=[N+]([O-])c1cccc(NC2=NCC(CBr)S2)c1 (configuration not stated) | inactive: -1.41%
COc1ccc(C2=NCC(CBr)S2)cc1 (configuration not stated) | inactive: -3.15%
Cc1ccc(NP(=O)(Oc2ccccc2)Oc2ccccc2)nc1 | inactive: 0.0908%
CCc1nc2c(n1)c1c(non1O)c1c2no[n+]1[O-] | inactive: 2.04%
O=[N+]([O-])c1cc([N+](=O)[O-])c(CCNc2ccccc2)c([N+](=O)[O-])c1 | inactive: 2.74%
O=[N+]([O-])c1cccc2n[nH]nc12 | inactive: 3.02%
CC(=O)N1C2C3N(C(C)=O)C1C1N(C(C)=O)C(C(N1C(C)=O)N3C(C)=O)N2C(C)=O | inactive: -0.616%
CCN(/C(=N/P(=O)(N1CCOCC1)N1CCOCC1)N1CCOCC1)c1ccc(OC)cc1 | inactive: -0.789%
Nc1ccc([As](=O)(O)c2ccc(N)cc2)cc1 | inactive: -1.26%
CN(C)C(=O)OCCc1n(C)cc[n+]1C | inactive: 1.09%
CN(C(=O)Cc1ccc(Cl)c(Cl)c1)[C@H]1CCCC[C@H]1N1CCCC1 | inactive: -0.149%
Cc1ccc(N/C(=N/P(=O)(N2CCOCC2)N2CCOCC2)N2CCOCC2)cc1 | inactive: -0.233%
NC(=O)c1cc([N+](=O)[O-])cc([N+](=O)[O-])c1N | inactive: -2.96%
Clc1ccc(Cl)c(NC2=NCC(CBr)S2)c1 (configuration not stated) | inactive: -18.2%
CN1CCCC(OC(=O)C(c2ccccc2)c2ccccc2)C1 (configuration not stated) | inactive: 2.23%

Structure (SMILES) | activity change, negative = inhibition
COc1ccccc1OP(=O)(Nc1ccc(C)cn1)Oc1ccccc1OC | inactive: 0.886%
Cc1ccc(OP(=O)(Nc2nccs2)Oc2ccc(C)cc2)cc1 | inactive: -0.0136%
Oc1ccccc1CNc1ccccn1 | inactive: -2.47%
Cc1c2non([O-])c-2c(C)[n+](=O)[n+]1[O-] | inactive: -5.95%
O=C(NC(Sc1ccncn1)C(Cl)(Cl)Cl)c1ccccc1 (configuration not stated) | inactive: 3.74%
CC(C)CC(=O)NC(Sc1ccc(Cl)cc1)C(Cl)(Cl)Cl (configuration not stated) | inactive: 0.567%
Nc1cc(N)c2nonc2c1[N+](=O)[O-] | inactive: -1.35%
O=P(Nc1nc2ccc(Cl)cc2s1)(c1ccccc1)c1ccccc1 | inactive: 2.02%
O=C(O)c1ccccc1[As](=O)(O)O | inactive: -0.834%
CC(=O)Nc1ccc([As](=O)(O)O)cc1 | inactive: 4.33%
CCOP(=O)(Nc1ccccc1)OCC | inactive: 3.77% and inactive: 2.03%
Cc1cc(SC(NC(=O)c2ccc(F)cc2)C(Cl)(Cl)Cl)ncn1 (configuration not stated) | inactive: 1.56%
Cc1ccc(NP(=O)(Oc2ccccc2F)Oc2ccccc2F)nc1 | inactive: 7.29%
O=[N+]([O-])c1cc([N+](=O)[O-])c(CCN2CCOCC2)c([N+](=O)[O-])c1 | inactive: -0.876%
Nc1cccc2ccc([As](=O)(O)O)cc12 | inactive: -12.8%
CCN(N=Nc1nonc1N)c1nonc1N | inactive: 9.87%
